In one data set the target is CYP3A4 (Homo sapiens, UniProt P08684). Nature of the data set: Cytochrome P450 enzyme assay, CYP3A4 (Gentest Supersomes, fluorometric). As to conditions: read-out: CP450 3A4 IC50; human recombinant enzyme, mean IC50. The method, then: (§1) In vitro assays to determine the concentration of the compounds provided herein required for 50% inhibition of substrate metabolism (IC50) by different human cytochrome P450 enzymes (2C9, 2C19, 3A4) were conducted using human recombinant cytochrome P450 enzyme assays, developed by Gentest Corporation. These assays contain Gentest Supersomes™ (specific human cytochrome P450 enzyme, co-expressed with P450 reductase and cytochrome b5), a NADPH regenerating system, substrate and a concentration range of the compounds provided herein. The fluorescent product was the measured end point for these assays. IC50s were calculated using a four-parameter logistic equation with the bottom fixed at 0% inhibition and the top fixed at 100% inhibition. (Values are the mean IC50±SD when n is greater than 1.)
(§2) Assays were conducted in 96-well microtiter plates using fluorometric assays developed by Gentest Corporation. The 12 wells in each row were used for one inhibition curve. Wells 1 to 8 contained serial 1:3 dilutions of the test compound. Wells 9 to 12 contained no inhibitor and wells 11 and 12 were blanks for background fluorescence (stop solution was added before the enzyme). All concentration curves were performed in duplicate. […] Metabolite production per well was determined by measuring fluorescence using a fluorescent plate reader. […]
A 0.2 ml/well reaction mixture containing 4 pmol CYP3A4 (P202), 1.3 mM NADP^+, 3.3 mM glucose-6-phosphate, 3.3 mM magnesium chloride 0.4 U/ml glucose-6-phosphate dehydrogenase, 0.01% pluronic F68, and 50 μM resorufin benzyl ether in 200 mM potassium phosphate (pH 7.4), was incubated at 37° C. for 30 minutes. […] After incubation, the reaction was stopped by the addition of 75 μl stop solution (80% acetonitrile/20% 0.5 M Tris base) and fluorescence/well was measured within 1 hour using a Spectra Fluor (Tecan) fluorescent plate reader. […]
(§3) The “% inhibition” was calculated as follows: [formula]
(§4) Concentration versus % inhibition curves were constructed in Prism (GraphPad, Inc.). The data was analyzed using “Top & Bottom Fixed” routine. […]

Protein sequences, listed by entry. Tags and fused reporters are not part of them. Residues count along the entry.
UniProt P08684, 2-503 limits assumed: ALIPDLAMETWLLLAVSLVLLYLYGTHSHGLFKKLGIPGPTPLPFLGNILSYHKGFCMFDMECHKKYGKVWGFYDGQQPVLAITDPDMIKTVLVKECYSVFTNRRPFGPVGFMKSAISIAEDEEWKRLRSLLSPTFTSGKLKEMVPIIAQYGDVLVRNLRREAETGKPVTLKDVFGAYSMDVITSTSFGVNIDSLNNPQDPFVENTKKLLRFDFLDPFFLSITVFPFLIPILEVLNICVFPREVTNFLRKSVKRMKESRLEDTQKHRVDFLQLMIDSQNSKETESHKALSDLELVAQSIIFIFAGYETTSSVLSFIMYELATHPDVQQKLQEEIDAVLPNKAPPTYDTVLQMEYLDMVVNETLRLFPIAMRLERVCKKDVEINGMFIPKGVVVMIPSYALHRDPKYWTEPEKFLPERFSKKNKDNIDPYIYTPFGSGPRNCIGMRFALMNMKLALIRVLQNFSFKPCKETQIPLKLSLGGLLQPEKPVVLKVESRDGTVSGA
UniProt P33261, whole entry: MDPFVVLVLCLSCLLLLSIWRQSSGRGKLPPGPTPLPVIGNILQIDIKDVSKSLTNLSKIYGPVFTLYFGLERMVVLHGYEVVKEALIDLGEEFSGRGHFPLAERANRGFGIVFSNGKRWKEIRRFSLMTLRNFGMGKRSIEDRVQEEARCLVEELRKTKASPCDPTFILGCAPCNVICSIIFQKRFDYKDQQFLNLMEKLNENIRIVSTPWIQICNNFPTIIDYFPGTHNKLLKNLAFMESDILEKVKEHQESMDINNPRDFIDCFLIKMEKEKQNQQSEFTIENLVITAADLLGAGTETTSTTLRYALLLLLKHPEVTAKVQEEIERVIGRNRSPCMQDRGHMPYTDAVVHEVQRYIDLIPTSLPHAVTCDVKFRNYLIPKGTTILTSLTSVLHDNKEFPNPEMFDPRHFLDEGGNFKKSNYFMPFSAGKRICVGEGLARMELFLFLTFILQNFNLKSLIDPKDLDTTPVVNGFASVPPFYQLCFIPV
UniProt P11712, whole entry: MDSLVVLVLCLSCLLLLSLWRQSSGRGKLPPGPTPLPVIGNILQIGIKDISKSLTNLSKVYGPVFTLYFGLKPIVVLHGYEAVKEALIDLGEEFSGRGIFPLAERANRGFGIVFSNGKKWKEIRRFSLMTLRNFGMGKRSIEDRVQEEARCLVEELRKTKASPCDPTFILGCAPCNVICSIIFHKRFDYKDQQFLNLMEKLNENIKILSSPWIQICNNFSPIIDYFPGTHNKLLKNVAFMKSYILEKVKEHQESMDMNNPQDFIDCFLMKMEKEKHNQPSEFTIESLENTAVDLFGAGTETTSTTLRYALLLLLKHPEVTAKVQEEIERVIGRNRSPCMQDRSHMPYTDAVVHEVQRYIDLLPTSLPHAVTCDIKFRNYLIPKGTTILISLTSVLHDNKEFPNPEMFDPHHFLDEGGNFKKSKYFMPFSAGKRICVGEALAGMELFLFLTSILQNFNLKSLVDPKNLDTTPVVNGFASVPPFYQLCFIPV
UniProt P25101, 21-427 limits assumed: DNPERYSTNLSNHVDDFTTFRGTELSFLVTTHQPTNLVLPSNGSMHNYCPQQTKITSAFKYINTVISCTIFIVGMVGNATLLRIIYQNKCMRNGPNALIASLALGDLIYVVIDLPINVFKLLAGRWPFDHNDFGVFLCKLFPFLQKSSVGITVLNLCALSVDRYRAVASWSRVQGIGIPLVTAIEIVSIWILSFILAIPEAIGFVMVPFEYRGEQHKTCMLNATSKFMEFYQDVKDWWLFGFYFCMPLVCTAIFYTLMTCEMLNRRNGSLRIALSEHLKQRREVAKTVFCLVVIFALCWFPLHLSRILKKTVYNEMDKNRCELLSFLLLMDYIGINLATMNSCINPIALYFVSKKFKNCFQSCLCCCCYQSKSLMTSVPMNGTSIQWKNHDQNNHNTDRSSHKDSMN

The next data set concerns the target CYP2C19 (Homo sapiens, UniProt P33261). Briefly: Cytochrome P450 enzyme assay, CYP2C19 (Gentest Supersomes, fluorometric). The note with it: read-out: CP450 2C19 IC50; human recombinant enzyme, mean IC50. The protocol:
as §1, §2
A 0.2 ml/well reaction mixture containing 1 pmol CYP2C19 (P259), 1.3 mM NADP^+, 3.3 mM glucose-6-phosphate, 3.3 mM magnesium chloride, 0.4 U/ml glucose-6-phosphate dehydrogenase and 25 μM 3-cyano-7-ethoxycoumarin in 50 mM potassium phosphate (pH 7.4), was incubated at 37° C. for 45 minutes. […] After incubation, the reaction was stopped by the addition of 75 μl stop solution (80% acetonitrile/20% 0.5 M Tris base) and fluorescence/well was read within 1 hour using a Spectra Fluor (Tecan) fluorescent plate reader. […]
as §3, §4

Data set [1] in a line: Pharmacokinetic properties (oral availability, elimination half-life, Cmax). As to conditions: in vivo. The source says:
As used herein, bioavailability or oral availability refers to the rate and extent of absorption. Methods for determining bioavailability or oral availability are well known to those of skill in the art. For example, bioavailability or oral availability of any of the compounds described herein can be determined empirically by administration of the compound to an animal, followed by taking blood samples over time and measuring the blood concentration of the compound. In vivo half life (t1/2) is defined as the time it takes for the concentration of the compound in the blood to be reduced by one-half. Estimations of the area under the curve for intravenous administration can be used to estimate the area under the curve for oral administration, yielding bioavailability data. See, e.g., Milo Gibal (1991) Biopharmaceutics and Pharmacology, 4th edition (Lea and Sediger).

The next data set deals with CYP2C9 (Homo sapiens, UniProt P11712). Briefly: Cytochrome P450 enzyme assay, CYP2C9 (Gentest Supersomes, fluorometric). As to conditions: read-out: CP450 2C9 IC50; human recombinant enzyme, mean IC50. The method, then:
as §1, §2
A 0.2 ml/well reaction mixture containing 2 pmol CYP2C9 (P258), 1.3 mM NADP^+, 3.3 mM glucose-6-phosphate, 3.3 mM magnesium chloride, 0.4 U/ml glucose-6-phosphate dehydrogenase and 75 μM 7-methoxy-4-trifluoromethylcoumarin in […] (pH 7.4), was incubated at 37° C. for 45 minutes. […] After incubation, the reaction was stopped by the addition of 75 μl stop solution (80% acetonitrile/20% 0.5 M Tris base) and fluorescence/well was measured using a Spectra Fluor (Tecan) or Cytoflour 2350 (Millipore) fluorescent plate reader. […]
as §3, §4

Data set [2] has as its system ETA receptors and ETB receptors. Nature of the data set: Endothelin binding inhibition, ETA (TE 671) and ETB (transfected COS7) receptors: selectivity. As to conditions: antagonism of ETA receptors over ETB receptors.
Data set [3] concerns rats exposed to acute hypoxia. Briefly: Acute hypoxia model, mean pulmonary arterial pressure (MPAP) increase. The note with it: in vivo model, rat. The method, then:
The chamber was gassed by adding N2 to the chamber intermittently from a liquid N2 reservoir. A baralyme (Allied Health Care Products, St. Louis, Mo., USA) CO2 scrubber kept the CO2 concentration <0.2%. Relative humidity within the chamber was kept <70% with anhydrous CaSO4. Boric acid was used to keep NH3 levels within the chamber at a minimum. See, Tilton et al. (2000) Pulm. Pharm. Ther. 13:87-97. In the initial experiment, effects of a test compound were assessed on mean pulmonary arterial pressure (MPAP) of rats subsequently exposed to acute hypoxia 90 min in duration. […] All catheters were connected to polyethylene (PE 20) tubing, and were exteriorized at the back of the neck by a stainless steel wire (0.018 in. diam) tunneled subcutaneously. Two days later, MPAP was recorded through the femoral and pulmonary arterial cannulas via transducers coupled to a polygraph recorder. […] Pulmonary pressure rapidly returned toward baseline values when this group was returned to room air at the end of the experiment.

The next data set deals with human ETA receptors (Homo sapiens, UniProt P25101). Nature of the data set: Endothelin binding inhibition, Binding Test #1: inhibition of binding to ETA receptors (TE 671 cell membranes). The note with it: relative to N-(4-chloro-3-methyl-5-isoxazolyl)-2-{[3,4-(methylenedioxy)-6-methylphenyl)acetyl]-thiophene-3-sulfonamide (= 1.0). From the text: Compounds that are potential endothelin antagonists are identified by testing their ability to compete with ^125I-labeled ET-1 for binding to human ETA receptors or ETB receptors present on isolated cell membranes. The effectiveness of the test compound as an antagonist or agonist of the biological tissue response of endothelin can also be assessed by measuring the effect on endothelin induced contraction of isolated rat thoracic aortic rings. The ability of the compounds to act as antagonists or agonists for ETB receptors can be assess by testing the ability of the compounds are to inhibit endothelin-1 induced prostacyclin release from cultured bovine aortic endothelial cells.
A. Endothelin Binding Inhibition—Binding Test #1: Inhibition of Binding to ETA Receptors
TE 671 cells (ATCC Accession No. HTB 139) express ETA receptors. These cells were grown to confluence in T-175 flasks. Cells from multiple flasks were collected by scraping, pooled and centrifugedfor 10 min at 190×g. The cells were resuspended in phosphate buffered saline (PBS) containing 10 mM EDTA using a Tenbroeck homogenizer. […]
The supernatant, containing unbound radioactivity, was decanted and the pellet counted on a Genesys multiwell gamma counter. The degree of inhibition of binding (D) was calculated according to the following equation: [formula] […]

Molecules are shown by their SMILES.

Usually IC50 stands for the midpoint of a concentration-inhibition curve. For `Cc1cc(C)c(NC(=O)c2sccc2S(=O)(=O)Nc2onc(C)c2C)c(C#N)c1C` [Compound 9, N-(2-cyano-3,4,6-trimethylphenyl)-3-{[(3,4-dimethyl-5-isoxazolyl)amino]sulfonyl}-2-thiophenecarboxamide], the IC50 was 3.3 µM at CYP3A4, 14.4 µM at CYP2C19 and 2.38 µM at CYP2C9. The Cmax in data set [1] was 85.8 µg. Moreover, the Selectivity (IC50 for ETB/IC50 for ETA) in data set [2] amounted to 330000.

As to `Cc1cc(C)c(NC(=O)c2sccc2S(=O)(=O)Nc2onc(C)c2Cl)c(C(=O)CS(C)(=O)=O)c1`, the figures for the IC50 on CYP3A4, at CYP2C19 and at CYP2C9 were 4 µM, 50.6 µM and 5.1 µM, respectively. The “Acute Hypoxia: dose to achieve 50% inhibition of mean pulmonary artery pressure increase” value in data set [3] was greater than 5 mg/kg. Also, the “ETA ACTIVITY (ETA antagonist activity relative to reference compound)” value on human ETA receptors was found to be 13.7. In addition, the Selectivity (IC50 for ETB/IC50 for ETA) in data set [2] was 66500.

In the case of `Cc1cc(C)c(NC(=O)c2sccc2S(=O)(=O)Nc2onc(C)c2Cl)c(C#N)c1C` [Compound 32, 3-{[(4-chloro-3-methyl-5-isoxazolyl)amino]sulfonyl}-N-(2-cyano-3,4,6-trimethylphenyl)-2-thiophenecarboxamide], the figures for the IC50 on CYP3A4, on CYP2C19 and at CYP2C9 were 1.44 µM, 13.5 µM and 0.77 µM, respectively. This molecule also displayed a Cmax in data set [1] of 45.7 µg. The same molecule came in with a t½ elim. in data set [1] of 5.1 h. This molecule also gave a Selectivity (IC50 for ETB/IC50 for ETA) in data set [2] of 550000.

These data come from patent US6686382B2, “Sulfonamides and derivatives thereof that modulate the activity of endothelin” (Encysive Pharmaceuticals Inc., priority 1999, dated 2004).
